{
  "source": "paper PMC7613929",
  "about": "(Nature microbiology, 2022)",
  "parents": {"B1": {"name": "E. coli FtsN cytoplasmic tail peptide, residues 1-32 (EcFtsN^1-32) [E. coli] / E. coli FtsA (EcFtsA), full length [E. coli] (parent complex)", "chain 1": "MAQRDYVRRSQPAPSRRKKSTSRKKQRNLPAV", "chain 2": "MIKATDRKLVVGLEIGTAKVAALVGEVLPDGMVNIIGVGSCPSRGMDKGGVNDLESVVKCVQRAIDQAELMADCQISSVYLALSGKHISCQNEIGMVPISEEEVTQEDVENVVHTAKSVRVRDEHRVLHVIPQEYAIDYQEGIKNPVGLSGVRMQAKVHLITCHNDMAKNIVKAVERCGLKVDQLIFAGLASSYSVLTEDERELGVCVVDIGGGTMDIAVYTGGALRHTKVIPYAGNVVTSDIAYAFGTPPSDAEAIKVRHGCALGSIVGKDESVEVPSVGGRPPRSLQRQTLAEVIEPRYTELLNLVNEEILQLQEKLRQQGVKHHLAAGIVLTGGAAQIEGLAACAQRVFHTQVRIGAPLNITGLTDYAQEPYYSTAVGLLHYGKESHLNGEAEVEKRVTASVGSWIKRLNSWLRKEF"}},
  "data": [
    {"variants_of": "B1", "assay": "SPR; FtsA immobilised on CM5 chip via amide coupling; peptide 1:2 dilution series from 20 μM", "units": {"Kd": "µM"}, "values": [
      {"variant": "chain 1 MAQRDYVAASQPAPSRRKKSTSRKKQRNLPAV", "Kd": 11.6}
    ]}
  ]
}
